Assay results reported in US8901120B2, “Substituted N-phenylpyrimidin-2-amine analogs as inhibitors of the Axl kinase” (University of Utah Research Foundation, priority 2011, dated 2014).

Legend:
[1] = molecular target: T1, recombinant human Axl kinase (catalytic domain, amino acids 473-894) (Homo sapiens, UniProt P30530); assay: Axl kinase activity assay (TR-FRET, fluorescein poly-GT substrate); type: biochemical; details: 20 μM ATP, 93 ng/ml Axl kinase, 60 min
T1 construct: catalytic domain, amino acids 473-894; purchased Invitrogen Corporation, Carlsbad, Calif
T1 sequence (P30530 473-894): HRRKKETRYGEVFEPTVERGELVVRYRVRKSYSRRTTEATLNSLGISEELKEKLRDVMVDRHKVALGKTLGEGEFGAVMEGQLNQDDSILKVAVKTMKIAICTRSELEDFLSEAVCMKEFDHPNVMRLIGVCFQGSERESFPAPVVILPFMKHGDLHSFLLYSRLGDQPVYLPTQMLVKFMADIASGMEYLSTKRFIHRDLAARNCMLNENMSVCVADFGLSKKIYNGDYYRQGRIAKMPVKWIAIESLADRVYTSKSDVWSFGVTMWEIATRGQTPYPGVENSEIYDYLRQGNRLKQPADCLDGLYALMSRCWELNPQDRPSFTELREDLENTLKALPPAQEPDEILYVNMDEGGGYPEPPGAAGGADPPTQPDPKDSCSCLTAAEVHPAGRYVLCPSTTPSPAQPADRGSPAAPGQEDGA
Procedure: Test compounds were diluted to desired concentrations in kinase reaction buffer (50 mM HEPES pH 7.5, 10 mM MgCl2, 1 mM EGTA, 2 mM DTT, and 0.01% v/v Tween-20) and were briefly incubated with Axl kinase (Invitrogen Corporation, Carlsbad, Calif.). The Axl kinase used was recombinant human Axl kinase (catalytic domain, amino acids 473-894) with a histidine tag. The reaction was initiated by the addition of ATP and fluorescein-labeled poly-GT substrate (poly Glu:Tyr, 4:1 polymer; Invitrogen). Concentration of the various components in the assay (10 μl reaction volume) were: 1% DMSO, 93 ng/ml Axl kinase, 20 μM ATP, and 200 nM fluorescein poly-GT substrate. Following addition of ATP and fluorescein poly-GT substrate, incubation was for 60 min at room temperature, the enzyme reaction is stopped by addition of 10 μl terbium-labeled anti-phosphotyrosine PY20 antibody in EDTA-containing buffer. Final concentration of EDTA and antibody after addition to the reaction is 10 mM and 2 nM, respectively. […] After one hour incubation at room temperature, fluorescence was measured with excitation of 320 nm and dual emission of 495 and 520 urn on an EnVision microplate reader (PerkinElmer). Signal is expressed in terms of a TR-FRET ratio (fluorescence intensity at 520 nm to 495 nm).
(§1) IC50 values are determined using GraphPad Prism 5 software. […]

[2] = system: PSN-1; assay: Cell viability assay (ATP-Lite), PSN-1; type: cell-based; details: Homo sapiens, PSN1; PSN-1, 96 hours
Procedure: All cell lines were cultured in media as recommended by American Type Culture Collection (“ATCC”; supplemented with 10% fetal bovine serum (“FBS”) and 1% penicillin/streptomycin (100 IU/ml pencillin and 100 μg/ml streptomycin) at 37° C. and 5% CO2. The cell lines used in these studies included those indicated in Table II below.
For cell proliferation assays, 45 μl containing 1000 cells per well were seeded into solid white 384-well plates in appropriate cell growth media containing 10% FBS and incubated overnight at 37° C. and 5% CO2. The following day, test compounds were diluted in serum free growth media to 10× desired concentrations and 5 μl was added to each well. Combined compound and cells were incubated for 96 hours. Following incubation, 40 μl of ATP-Lite solution (PerkinElmer, Inc., Waltham, Massachussetts) was added to each well, incubated for an additional 10 minutes at room temperature and luminescence was measured on an EnVision microplate reader. Percent cell viability for test compounds was calculated by comparing treated wells to appropriate controls (e.g. vehicle treated) included on each plate.
as §1
The ability of compounds to inhibit the viability of cultured cells was determined using the cell viability assay described above. […] IC50 values were determined as described above. […]

IC50 [1] [nM]	Compound	IC50 [2] [nM]
53	CN1CCN(Cc2ccc(Nc3ncc(Cl)c(Nc4ccccc4S(=O)(=O)N(C)C)n3)cc2)CC1 [Compound 4]	
	CN1CCC(N(C)c2ccc(Nc3ncc(Cl)c(Nc4ccccc4S(=O)(=O)N(C)C)n3)cc2)CC1 [Compound 5]	410
